The subject of one assay is E. coli ATCC 25922. In kind it is cell-based, Escherichia coli. The conditions noted are these: pH (I or II) not given; 10 mM sodium phosphate buffer, 10% LB; 37° C, 24 h; mean of 3 experiments. An excerpt: The method for peptide synthesis has been described in detail previously. E. coli ATCC 25922 (LB media), P. aeruginosa ATCC 15692 (NB+0.5% NaCl media), Listeria monocytogenes ATCC 3710 (LB media), Staphylococcus epidermidis ATCC 12228 (LB media), and S. aureus ATCC 29213 (TSB media) were obtained from the American Type Culture Collection (Manassas, VA, USA). Bacillus subtilis KCTC 1998 (LB media), Salmonella typhimurium KCTC 1926 (NB media), and Proteus vulgaris KCTC 2433 (NB media) were obtained from the Korean Collection for Type Cultures (Jeollabuk-do, Korea). E. coli CCARM 1238 was received from the Culture Collection of Antibiotic Resistant Microbes at Seoul Women’s University, Korea. […]
(§1) The antibacterial activities of AMPs (melittin, clavaspirin, and its analogs) and conventional antibiotic drugs (erythromycin, gentamicin, ampicillin, and piperacidin) were determined using microdilution assays. […] At the end of the incubation, the minimum inhibitory concentrations (MICs) of the peptides were determined using a VERSA Max microplate reader (Molecular Devices Co., Sunnyvale, CA, USA) at a wavelength of 600 nm. […] MIC values were calculated as the mean of 3 independent experiments conducted in triplicate.

The next assay deals with S. aureus ATCC 29213. In kind it is cell-based, Staphylococcus aureus. The conditions noted are these: pH (I or II) not given; 10 mM sodium phosphate buffer, 10% LB; 37° C, 24 h; mean of 3 experiments.
Text: The method for peptide synthesis has been described in detail previously. […] Bacillus subtilis KCTC 1998 (LB media), Salmonella typhimurium KCTC 1926 (NB media), and Proteus vulgaris KCTC 2433 (NB media) were obtained from the Korean Collection for Type Cultures (Jeollabuk-do, Korea). E. coli CCARM 1238 was received from the Culture Collection of Antibiotic Resistant Microbes at Seoul Women’s University, Korea. Drug-resistant P. aeruginosa 3543, 3904, 3547, and 4007 and S. aureus 3126, 0027, 5157, 1635, 4761, 5159, 3359, 2122, 1630, 1870, 3511, 5156, and 3518 were resistant strains isolated from patients with otitis media in a Chonnam National University’s hospital.
as §1

The structures appear in SMILES notation. Values after ≈ are worked out from the molar mass of the structure shown.

Take `CC[C@H](C)[C@H](NC(=O)CN)C(=O)NCC(=O)N[C@@H](C)C(=O)N[C@H](C(=O)N[C@@H](CC(C)C)C(=O)N[C@@H](CCCCN)C(=O)N[C@H](C(=O)N[C@@H](CC(C)C)C(=O)N[C@H](C(=O)N[C@H](C(=O)NCC(=O)N[C@@H](CC(C)C)C(=O)N1CCC[C@H]1C(=O)N[C@@H](C)C(=O)N[C@@H](CC(C)C)C(=O)N[C@H](C(=O)N[C@@H](CO)C(=O)N[C@@H](Cc1c[nH]c2ccccc12)C(=O)N[C@H](C(=O)N[C@@H](CCCCN)C(=O)N[C@@H](CCCNC(=N)N)C(=O)N[C@@H](CCCCN)C(=O)N[C@@H](CCCNC(=N)N)C(=O)N[C@@H](CCC(N)=O)C(=O)N[C@@H](CCC(N)=O)C(N)=O)[C@@H](C)CC)[C@@H](C)CC)[C@@H](C)O)[C@@H](C)O)C(C)C)C(C)C` [Melittin]: the “MIC, E. coli” value in the assay on E. coli ATCC 25922 worked out at 2 µM (≈ 5.69 µg/mL). Moreover, the “MIC, S. aureus” value in the assay on S. aureus ATCC 29213 was 2 µM (≈ 5.69 µg/mL).

Source of the values: publication PMC5884652, “New antimicrobial peptide kills drug-resistant pathogens without detectable resistance” (Oncotarget, 2018).
